According to patent EP0031104A1, “Thiazolidine compounds, processes for their preparation and pharmaceutical compositions containing them” (SANTEN PHARMACEUTICAL CO., LTD., priority 1979, dated 1981):

Biological target: aldose reductase (Rattus norvegicus, UniProt P07943)
Experiment: Aldose reductase inhibition (optical density at 340 nm, Kinoshita's method)
Assay type: biochemical
Conditions: read-out: IC50(M) Molar concentration of a compound producing 50% inhibition of aldose reductase; aldose reductase purified from rat lenses; pH 6.2; DL glyceraldehyde, NADPH; tested form: free acid (monoethyl ester)

SMILES: CCOC(=O)CCCCCCCC(=O)N1C(c2cccc([N+](=O)[O-])c2)SC[C@H]1C(=O)O (stereo partly shown)
- IC50: 1.1e-08 M
